# Antibody variant affinities, Ab-14 light chain, assay 1

Reference: Engelhart et al. 2022, doi:10.1038/s41597-022-01779-4. File: FLAb, binding data.

All variants were tested on one target, the spike HR2 peptide PDVDLGDISGINAS (SARS-CoV-2).

Parent scFv Ab-14: VH joined to VL by three GGGGS repeats. Changes lie in the light chain CDRs alone.
VH: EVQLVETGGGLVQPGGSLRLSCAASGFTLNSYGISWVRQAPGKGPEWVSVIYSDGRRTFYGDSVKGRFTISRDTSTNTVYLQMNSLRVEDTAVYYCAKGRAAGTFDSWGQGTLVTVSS
VL: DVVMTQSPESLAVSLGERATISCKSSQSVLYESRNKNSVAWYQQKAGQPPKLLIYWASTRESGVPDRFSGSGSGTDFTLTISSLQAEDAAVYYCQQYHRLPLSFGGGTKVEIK

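The starting antibody came from a phage panning campaign against this peptide. The library (AAYL50) carries one to three amino acid substitutions per variant, with no insertions or deletions. The assay is AlphaSeq: two haploid yeast populations carry antibody and antigen on their surface. After mating in shaken culture at 30 °C for 16 h, diploids were selected and their barcode pairs sequenced. Scores were corrected for input abundance and mapped to Kd with protein pairs of known affinity run in the same pool. Each pool was mated in three replicate cultures.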

Changes read parent residue, position, new residue, counted from the first residue of the VL shown.
Every variant below is changed at Q27 of the VL (sequential numbering).
Kd is apparent (estimated from mating counts) and averaged on the log scale over replicates with a signal. Smaller is tighter.
Where no diploid with the target was found in any replicate, the entry reads "nd": below detection, most likely a poor binder, though not proof of it.
As a blank, each scFv also met three strains without target: over library AAYL50, 18% of these pairings were detected, typically at 15 µM and seldom below 970 nM.
Parent in this assay: reference entry 4.4 nM, copy in this library 48 nM.

Variant Q27R S62E L102F showed 7.8 nM (3 of 3 replicates).
Variant Q27C A40M P101L showed 73 µM (3 of 3 replicates).
Variant K24F Q27E A57T showed 28 nM (3 of 3 replicates).
Variant Q27S R99C showed 7.7 µM (3 of 3 replicates).
Variant Q27M L30G H98P showed 19 µM (2 of 3 replicates).
Variant Q27I showed 650 nM (3 of 3 replicates).
Variant Q27S N35Y W56V showed 1.7 µM (2 of 3 replicates).
Variant Q27M V29P R34A showed 5.6 nM (3 of 3 replicates).
Variant Q27T P101D showed 40 nM (3 of 3 replicates).
Variant Q27W S28G showed 53 nM (3 of 3 replicates).
Variant Q27G R60I P101M showed 5.8 µM (2 of 3 replicates).
Variant Q27F S58N P101F showed 25 nM (3 of 3 replicates).
Variant Q27G S28V R60P showed 490 nM (2 of 3 replicates).
Variant Q27R R34E K36R showed nd (0 of 3 replicates).
Variant Q27R S38G L100W showed 1.5 µM (3 of 3 replicates).
Variant Q27E Y97L showed 1.8 µM (3 of 3 replicates).
Variant Q27L Y31V Q95P showed 690 nM (3 of 3 replicates).
Variant Q27S V39P S58I showed nd (0 of 3 replicates).
Variant Q27R E61W L102G showed 11 µM (1 of 3 replicates).
Variant Q27S S62Y L102S showed nd (0 of 3 replicates).
Variant Q27Y S28C L100I showed nd (0 of 3 replicates).
Variant Q27G Y31E A40N showed nd (0 of 3 replicates).
Variant Q27C R34D showed 4.7 nM (3 of 3 replicates).
Variant Q27M showed 10 nM (3 of 3 replicates).
Variant Q27F R34M H98P showed 18 µM (1 of 3 replicates).
Variant K24P Q27D Y97E showed 5.0 µM (3 of 3 replicates).
Variant Q27G Y97F L102H showed 4.3 µM (1 of 3 replicates).
Variant Q27H T59S Y97Q showed 460 nM (3 of 3 replicates).
Variant Q27F L100S showed 25 nM (3 of 3 replicates).
Variant Q27I Q95F R99S showed nd (0 of 3 replicates).
Variant Q27G V29H L100H showed 50 nM (3 of 3 replicates).

The opening 2 entries, copied out:

{"changes": "Q27R S62E L102F", "apparent Kd": "7.8 nM", "detected": "3 of 3"}
{"changes": "Q27C A40M P101L", "apparent Kd": "73 µM", "detected": "3 of 3"}